Among the data in paper doi:10.1101/2021.12.23.473878 are stoichiometry N values, retold here.

Broadly, the stoichiometry N is the number of molecules, sites or subunits per partner or assembly.

The experiment addresses TACAN lacking the entire N-terminus (K135X-D343) (human) (UniProt Q9BXJ8). Kind of experiment: cross-linking.

In turn, “TACAN lacking the entire N-terminus (K135X-D343) (from UniProt Q9BXJ8 135-343) (domain or fragment)” registered a stoichiometry N of 2.
